According to US20160159787A1, “Cis-tetrahydro-spiro(cyclohexane-1, 1' -pyrido[3,4-b]indole)-4-amine Compounds” (published 2016):
pEC50, pKi: −log10 of the molar value. Where two headings read alike, the source gives them in different places.

By UniProt entry, the sequences of proteins in these tests, tags left out. Where a name states a change or a piece, a line headed by the entry shows the natural chain unless it says otherwise.
UniProt P41146: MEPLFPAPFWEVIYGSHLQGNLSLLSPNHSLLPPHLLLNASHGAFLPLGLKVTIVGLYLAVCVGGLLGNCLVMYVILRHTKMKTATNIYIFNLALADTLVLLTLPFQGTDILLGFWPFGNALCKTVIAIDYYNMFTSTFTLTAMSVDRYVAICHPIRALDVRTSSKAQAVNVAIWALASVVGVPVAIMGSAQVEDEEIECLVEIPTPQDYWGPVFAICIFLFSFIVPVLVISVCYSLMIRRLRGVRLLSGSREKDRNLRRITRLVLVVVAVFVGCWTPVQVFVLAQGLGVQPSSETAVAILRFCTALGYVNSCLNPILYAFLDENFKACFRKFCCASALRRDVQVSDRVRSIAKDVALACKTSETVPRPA
UniProt P35372, whole entry, looked up: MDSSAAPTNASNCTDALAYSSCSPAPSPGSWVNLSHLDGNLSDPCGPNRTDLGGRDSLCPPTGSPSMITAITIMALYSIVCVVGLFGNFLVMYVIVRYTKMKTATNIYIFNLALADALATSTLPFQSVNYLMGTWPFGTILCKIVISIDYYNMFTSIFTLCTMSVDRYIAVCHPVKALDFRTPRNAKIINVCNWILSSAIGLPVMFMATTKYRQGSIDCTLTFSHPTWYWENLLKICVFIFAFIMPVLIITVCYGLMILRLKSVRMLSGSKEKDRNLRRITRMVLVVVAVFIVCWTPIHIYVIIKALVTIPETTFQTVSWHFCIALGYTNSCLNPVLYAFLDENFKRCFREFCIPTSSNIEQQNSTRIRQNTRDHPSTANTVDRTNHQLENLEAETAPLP
UniProt P41145: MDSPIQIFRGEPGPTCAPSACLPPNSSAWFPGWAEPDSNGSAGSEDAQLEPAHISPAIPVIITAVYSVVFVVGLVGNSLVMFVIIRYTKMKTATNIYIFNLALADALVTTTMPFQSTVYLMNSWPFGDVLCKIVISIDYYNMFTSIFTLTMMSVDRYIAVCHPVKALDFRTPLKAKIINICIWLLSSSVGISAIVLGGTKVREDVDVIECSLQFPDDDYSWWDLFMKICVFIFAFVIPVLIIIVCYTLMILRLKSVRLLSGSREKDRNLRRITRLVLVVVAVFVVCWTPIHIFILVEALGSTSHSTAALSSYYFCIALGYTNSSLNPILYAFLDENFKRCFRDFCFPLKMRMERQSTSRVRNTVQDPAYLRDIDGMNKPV
UniProt P41143, whole entry, looked up: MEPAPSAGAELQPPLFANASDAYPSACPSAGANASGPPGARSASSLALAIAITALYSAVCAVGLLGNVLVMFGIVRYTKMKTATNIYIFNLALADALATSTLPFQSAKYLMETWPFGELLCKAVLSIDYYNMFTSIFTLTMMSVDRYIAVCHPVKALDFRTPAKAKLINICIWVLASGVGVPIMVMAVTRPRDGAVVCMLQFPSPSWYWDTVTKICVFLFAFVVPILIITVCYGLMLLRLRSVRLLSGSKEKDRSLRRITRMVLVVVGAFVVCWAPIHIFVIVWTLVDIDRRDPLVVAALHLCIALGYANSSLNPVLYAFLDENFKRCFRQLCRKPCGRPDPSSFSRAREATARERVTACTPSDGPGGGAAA

Key:
[1] = tested on: rat; assay: Blood gas analysis: arterial pCO2 and pO2 in the rat (respiratory depression); conditions: i.v.
[2] = target: T1, ORL1 (Homo sapiens, UniProt P41146); assay: ORL1 receptor binding (3H-nociceptin/orphanin FQ, CHO-ORL1 membranes)
[3] = Pharmacodynamic duration of action; conditions: dose 100 μg/kg i.v.
[4] = target: human μ-opiate receptor (Homo sapiens, UniProt P35372); assay: μ-opioid receptor binding ([3H]-naloxone, CHO-K1 membranes)
[5] = tested on: rat; assay: Tail-flick test in the rat (acute pain)
[6] = tested on: rat; assay: Chung model: mononeuropathic pain after spinal nerve ligation; conditions: for Pain, rat: neuropathic (SNL [Chung]) ED50: Table 6
[7] = target: T1, ORL1; assay: GTPgammaS assay, ORL1; conditions: for pEC50: read-out: ORL1 EC50
[8] = tested on: mouse; assay: Tail-flick test in the mouse; conditions: at 1000 μg/kg i.v.
[9] = target: T2, k-Opioid (Homo sapiens, UniProt P41145); assay: GTPgammaS assay, k-Opioid; conditions: for pEC50: read-out: k-Opioid EC50
[10] = target: μ-Opioid (Homo sapiens, UniProt P35372); assay: GTPgammaS assay, μ-Opioid; conditions: for pEC50: read-out: μ-Opioid EC50
[11] = tested on: mouse; assay: RotaRod test: motor coordination in the mouse; conditions: i.v.
[12] = target: T3, d-Opioid (Homo sapiens, UniProt P41143); assay: d-Opioid receptor radio-binding assay; conditions: read-out: d-Opioid Ki
[13] = target: T3, d-Opioid; assay: GTPgammaS assay, d-Opioid; conditions: for pEC50: read-out: d-Opioid EC50
[14] = tested on: mouse; assay: Charcoal passage test: gastrointestinal transit in the mouse; conditions: i.v.
[15] = target: T2, k-Opioid; assay: k-Opioid receptor radio-binding assay; conditions: read-out: k-Opioid Ki
[16] = Half-life t1/2 in the rat; conditions: 100 μg/kg, i.v.
[17] = tested on: mouse; assay: STZ, mouse: diabetic polyneuropathy; conditions: at 100 μg/kg i.p.
[18] = tested on: rat; assay: Conditioned place preference in the rat (mental dependency); conditions: i.p.
[19] = tested on: rabbit; assay: Cardiovascular parameters: blood pressure and cardiac frequency in the awake rabbit; conditions: i.v.
[20] = tested on: mouse; assay: Jumping test: physical dependency in the mouse (naloxone-precipitated withdrawal); conditions: i.p.
[21] = read-out: Ki (ORL1), binding affinity
[22] = read-out: Ki (μ), binding affinity
[23] = read-out: ORL1 Ki, radio-binding assay (Table 6)
[24] = read-out: μ-Opioid Ki, radio-binding assay (Table 6)

CN(C)[C@]1(c2cccc(F)c2)CC[C@]2(CC1)c1[nH]c3ccccc3c1CCN2C(=O)Cc1ccc(F)cc1
Blood gas analysis, rat NOEL [1]: 0.3 mg/kg
pKi [2, 21]: 8.52
pharmacodynamic duration of action [3]: 1 to 3 h
pKi [4, 22]: 8.05
Tail-flick, rat NOEL ([5]; i.v.): > 0.1 mg/kg
Chung, rat % MPE ([6]; at 100 μg/kg i.v.): 20% MPE

COc1ccc(CC(=O)N2CCc3c4ccccc4[nH]c3[C@]23CC[C@@](c2cccc(F)c2)(N(C)C)CC3)cc1OC
ORL1 relative efficacy [7]: 90%
pEC50 [7]: 7.80
Pain, rat: Acute (tail flick) % MPE ([5]; @ 31.6 μg/kg (Table 6)): 54% MPE
Tail-flick, rat % MPE ([5]; at 31.6 μg/kg i.v.): 54% MPE at

CN(C)[C@]1(c2cccc(F)c2)CC[C@]2(CC1)NCCc1c3ccccc3[nH]c12
Tail-flick, rat % MPE ([5]; at 100 μg/kg i.v.): 60% MPE at
Chung, rat % MPE ([6]; at 30 μg/kg i.v.): 27% MPE at

CN(C)[C@]1(c2cccs2)CC[C@@]2(CC1)OCCc1c3ccccc3[nH]c12
Tail-flick, mouse % MPE [8]: 78% MPE at
Chung, rat % MPE ([6]; at 100 μg/kg i.v.): 17% MPE at

CN(C)[C@]1(c2ccccc2)CC[C@]2(CC1)c1[nH]c3ccccc3c1CCN2C(=O)/C=C/c1ccccc1
Blood gas analysis, rat NOEL [1]: 1 mg/kg
pKi [2, 21]: 7.74
pKi [4, 22]: 7.49
Tail-flick, rat NOEL ([5]; i.v.): > 0.1 mg/kg
Chung, rat % MPE ([6]; at 100 μg/kg i.v.): 18% MPE

CN(C)[C@]1(c2cccc(F)c2)CC[C@]2(CC1)c1[nH]c3ccccc3c1CCN2C(=O)c1cc2ccccc2s1
pKi [2, 21]: 7.80
pKi [2, 23]: 7.80
pharmacodynamic duration of action [3]: about 3 h
ORL1 relative efficacy [7]: 92%
pEC50 [7]: 6.99
pKi [4, 22]: 7.23
pKi [4, 24]: 7.23
k-Opioid relative efficacy [9]: 42%
pEC50 [9]: 6.06
μ-Opioid relative efficacy [10]: 82%
pEC50 [10]: 5.95
RotaRod, mouse NOEL [11]: ≧10000 μg/kg
pKi [12]: 8.17
d-Opioid relative efficacy [13]: 92%
pEC50 [13]: 7.39
Charcoal passage, mouse NOEL [14]: 3 mg/kg
Pain, rat: Acute (tail flick) % MPE ([5]; @ 1000 μg/kg (Table 6)): 0% MPE
Pain, rat: Acute (tail flick) % MPE ([5]; @ 10000 μg/kg (Table 6)): 73% MPE
Tail-flick, rat NOEL ([5]; i.v.): > 1 mg/kg
pKi [15]: 6.80
Pain, rat: neuropathic (SNL [Chung]) ED50 [6]: 0.106 mg/kg
Chung, rat % MPE ([6]; at 100 μg/kg i.v.): 42% MPE

CN(C)[C@]1(c2ccsc2)CC[C@@]2(CC1)OCCc1c3cc(F)ccc3[nH]c12
Tail-flick, rat % MPE ([5]; at 1000 μg/kg i.v.): 33% MPE at
Chung, rat % MPE ([6]; at 100 μg/kg i.v.): 28% MPE at

CN(C)[C@]1(c2cccc(F)c2)CC[C@]2(CC1)c1[nH]c3ccccc3c1CCN2C(=O)Cc1ccc(Cl)cc1
pKi [2, 21]: 7.77
pharmacodynamic duration of action [3]: about 3 h
pKi [4, 22]: 7.30
Charcoal passage, mouse NOEL [14]: 4.6 mg/kg
Tail-flick, rat NOEL ([5]; i.v.): > 1 mg/kg
Chung, rat % MPE ([6]; at 100 μg/kg i.v.): 35% MPE

CN(C)[C@]1(c2cccc(F)c2)CC[C@@]2(CC1)c1[nH]c3ccccc3c1CCN2C(=O)/C=C/c1ccccc1
Blood gas analysis, rat NOEL [1]: NOEL = 300 μg/kg i.v.
pKi [2, 21]: 8.70
pKi [2, 23]: 8.52
ORL1 relative efficacy [7]: 104%
pEC50 [7]: 7.33
pKi [4, 22]: 8.10
pKi [4, 24]: 8.10
k-Opioid relative efficacy [9]: 88%
pEC50 [9]: 7.23
μ-Opioid relative efficacy [10]: 97%
pEC50 [10]: 7.10
pKi [12]: 8.22
d-Opioid relative efficacy [13]: 126%
pEC50 [13]: 7.72
Pain, rat: Acute (tail flick) ED50 ([5]; Table 6): 0.64 mg/kg
Tail-flick, rat ED50 ([5]; i.v.): ED50 = 640 μg/kg i.v.
pKi [15]: 7.72
Pain, rat: neuropathic (SNL [Chung]) ED50 [6]: 0.4 mg/kg
Chung, rat NOEL ([6]; i.v.): NOEL ≧ 100 μg/kg

CN(C)[C@]1(c2cccc(F)c2)CC[C@@]2(CC1)c1[nH]c3ccccc3c1CCN2C(=O)c1cc2ccccc2s1
pKi [2, 23]: 7.85
ORL1 relative efficacy [7]: 81%
pEC50 [7]: 7.80
pKi [4, 24]: 7.92
k-Opioid relative efficacy [9]: 55%
μ-Opioid relative efficacy [10]: 66%
pEC50 [10]: 7.89
pKi [12]: 8.10
d-Opioid relative efficacy [13]: 87%
Pain, rat: Acute (tail flick) % MPE ([5]; @ 1000 μg/kg (Table 6)): 0% MPE
pKi [15]: 7.31
Pain, rat: neuropathic (SNL [Chung]) % MPE ([6]; @ 100 μg/kg (Table 6)): 20% MPE

COc1ccc(CC(=O)N2CCc3c4ccccc4[nH]c3[C@]23CC[C@](c2cccc(F)c2)(N(C)C)CC3)cc1OC
Blood gas analysis, rat NOEL (respiratory depression) [1]: NOEL: 1 mg/kg i.v.
t1/2, rat [16]: 3 h//about 3 h
pharmacodynamic duration of action [3]: 3 h//about 3 h
ORL1 relative efficacy [7]: 90%
pEC50 [7]: 7.30
STZ, mouse: inhibition of neuropathic pain in diabetic polyneuropathy [17]: 68% MPE at 100 μg/kg i.p.;
Place preference, rat NOEL (mental dependency) [18]: NOEL: ≧20 mg/kg i.p.
RotaRod test, mouse NOEL (motor coordination) [11]: NOEL: 10 mg/kg i.v.
RotaRod, mouse NOEL [11]: 10 mg/kg
Cardiovascular/circulatory system, rabbit NOEL (arterial blood pressure and cardiac frequency) [19]: NOEL: ≧3 mg/kg i.v.
Jumping test, mouse NOEL (physical dependency/withdrawal symptoms) [20]: NOEL: ≧10 mg/kg i.p.
Charcoal passage, mouse NOEL [14]: 1 mg/kg
Charcoal passage, mouse NOEL (gastrointestinal transit) [14]: NOEL: 1 mg/kg i.v.
Pain, rat: Acute (tail flick) % MPE ([5]; @ 10000 μg/kg (Table 6)): 0% MPE
Tail-flick, rat NOEL (inhibition of acute pain) ([5]; i.v.): NOEL: ≧10 mg/kg i.v.
Pain, rat: neuropathic (SNL [Chung]) ED50 [6]: 0.088 mg/kg
ED50^n against neuropathic pain ([6]; i.v., neuropathy models): 0.088 mg/kg
